Experiment [1] deals with HLA-DRB1*0701 (DR7) (Homo sapiens, UniProt P01903+P01911, A100R/A102G/A103Q/D57E/D86V/E43K/F76Y/K127E/L162R/M171V/P40G/Q125H/Q99D/R33Q/R42Y/R54Q/S133A/S66F/T210M/V115G/Y107V/Y59L/Y89S). The experiment is described as follows: Purified HLA class II peptide binding assay, DRB1*0701. To be noted: for DR7 binding data: Mage 2 DR super motif peptides (Table XIX A).
In experiment [2] the target is HLA-B*3501 (Homo sapiens, UniProt P01889, A329T/A93T/A95T/C349S/D201E/D98Y/E176V/E187L/E204Q/E69T/I218V/K202T/L119I/Q94N/R155S/R180L/S121R/S35A/S48A/T118I/V127L/V306I/V36M/Y140S/Y91F). The experiment is described as follows: Purified HLA class I peptide binding assay, B*3501. To be noted: binding affinity, HLA-B7 supermotif-bearing peptides.
For experiment [3], the target named is HLA-B*0702 (Homo sapiens, UniProt P01889). The experiment is described as follows: Purified HLA class I peptide binding assay, B*0702.
The test system of experiment [4] is B7-supertype molecules (B*0702, B*3501, B*5101, B*5301, and B*5401). The experiment is described as follows: B7-supertype cross-reactive binding (five alleles). Details: species or system human.
The target in experiment [5] is HLA-B*5401 (Homo sapiens, UniProt P01889, A329T/C349S/D138N/D201E/E176V/E187T/E204Q/E69G/I76V/K202T/L119W/R155S/R180L/S121T/S35A/S48A/V127L/V306I/V36M/Y140L). The experiment in a line: Purified HLA class I peptide binding assay, B*5401. The following applies: binding affinity, HLA-B7 supermotif-bearing peptides; read-out: B*5401 nM.
Experiment [6] deals with HLA-B*5301 (Homo sapiens, UniProt P01889, A329T/A93T/A95T/C349S/D201E/D98Y/E176V/E187L/E204Q/E69T/G107R/I218V/K202T/L105A/L119I/N104I/Q94N/R106L/R155S/R180L/S101N/S121R/S35A/S48A/T118I/V127L/V306I/V36M/Y140S/Y91F). The experiment is described as follows: Purified HLA class I peptide binding assay, B*5301. To be noted: binding affinity, HLA-B7 supermotif-bearing peptides.
Experiment [7] concerns the target HLA-B*5101 (B51) (Homo sapiens, UniProt P01889, A329T/A93T/A95T/C349S/D138N/D201E/D98Y/E187L/E204Q/E69T/G107R/I218V/K202T/L105A/L119W/N104I/Q94N/R106L/R155S/R180L/S101N/S121T/S35A/S48A/V306I/V36M/Y195H/Y91F). The experiment is described as follows: Purified HLA class I peptide binding assay, B51. The following applies: binding affinity, HLA-B7 supermotif-bearing peptides; read-out: B*5101 nM.

Sequences of proteins named here, by UniProt entry; tags and fusion partners are left off. A change or cut given only in a name is not applied to a line headed by its entry. Residues count along the entry.
UniProt P01889, 25-362: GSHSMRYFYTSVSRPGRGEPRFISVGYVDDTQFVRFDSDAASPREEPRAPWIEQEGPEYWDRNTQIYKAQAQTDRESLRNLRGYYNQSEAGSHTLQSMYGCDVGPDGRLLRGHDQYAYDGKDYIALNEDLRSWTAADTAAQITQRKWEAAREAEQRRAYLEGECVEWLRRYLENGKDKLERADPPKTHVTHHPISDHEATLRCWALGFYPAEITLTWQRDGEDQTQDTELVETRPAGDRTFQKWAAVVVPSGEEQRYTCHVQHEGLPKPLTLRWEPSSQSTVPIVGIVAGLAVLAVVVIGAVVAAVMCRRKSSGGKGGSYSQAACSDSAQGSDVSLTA

The target of experiment [8] is HLA-DRB1*0401 (DR4w4) (Homo sapiens, UniProt P01903+P01911, A100K/A169T/F76Y/I96L/K127E/L162R/M171V/N62H/P40V/Q125Y/R42H/S133A/S149N/S66Y/V115G/V209L/W38E). The experiment in a line: Purified HLA class II peptide binding assay, DRB1*0401.
In experiment [9] the target is HLA-DRB1*0101 (DR1) (Homo sapiens, UniProt P01903+P01911, A100R/D57E/F55L/F60I/F76Y/I96L/L162R/M171V/P40L/Q125E/R42F/V115G/Y59C). The experiment in a line: Purified HLA class II peptide binding assay, DRB1*0101.
Setting [10] is: Mage 2 DR super motif peptides (Table XIX A).
[11] abbreviates: Mage 2/3 DR motif peptides, unit not given.

Where only a bound is given, the exact number is not on record here.

In experiment [1], EPIHSYPPLHERALR yielded a DR7 binding data of −0.0011.

As for `CC[C@H](C)[C@H](NC(=O)[C@@H]1CCCN1C(=O)[C@H](Cc1ccc(O)cc1)NC(=O)[C@H](CC(N)=O)NC(=O)[C@H](CCSC)NC(=O)[C@@H](NC(=O)[C@@H](NC(=O)[C@@H]1CCCN1C(=O)[C@@H](N)CC(C)C)[C@@H](C)O)[C@@H](C)O)C(=O)O`, the IC50 is 343 nM in experiment [2], 100 nM in experiment [3] and 4.2 nM in experiment [5]. For the same molecule, the “No. of B7 Alleles Crossbound” value in [4] is reported as 5.

As for `CSCC[C@H](NC(=O)[C@@H](NC(=O)[C@@H](NC(=O)[C@@H]1CCCN1C(=O)[C@@H](N)CC(C)C)[C@@H](C)O)[C@@H](C)O)C(=O)N[C@@H](CC(N)=O)C(=O)N[C@@H](Cc1ccc(O)cc1)C(=O)N1CCC[C@H]1C(=O)N[C@@H](CC(C)C)C(=O)O`, the IC50 is 266 nM in experiment [6] and 1960 nM in experiment [7]. Besides, in experiment [4], the “No. of B7 Alleles Crossbound” value was 3.

`CC[C@H](C)[C@H](NC(=O)[C@@H]1CCCN1C(=O)[C@@H](N)C(C)C)C(=O)N[C@@H](CO)C(=O)N[C@@H](Cc1c[nH]cn1)C(=O)N[C@@H](CC(C)C)C(=O)N[C@@H](Cc1ccc(O)cc1)C(=O)N[C@@H](C)C(=O)N[C@@H](CC(C)C)C(=O)O` [VPISHLYAL]: the IC50 in [2] is 195 nM; in experiment [6] it was 6640 nM; in [7] it was 135 nM; in experiment [5] it was 8330 nM. In experiment [4], the “No. of B7 Alleles Crossbound” value was 3.

Molecule `CC[C@H](C)[C@H](NC(=O)[C@H](C)NC(=O)[C@H](CC(C)C)NC(=O)[C@@H](NC(=O)[C@@H](NC(=O)[C@@H](NC(=O)[C@H](CC(C)C)NC(=O)[C@H](CC(C)C)NC(=O)CNC(=O)[C@H](C)N)[C@@H](C)CC)[C@@H](C)CC)C(C)C)C(=O)N[C@H](C(=O)N[C@@H](C)C(=O)N[C@@H](CCCNC(=N)N)C(=O)N[C@@H](CCC(=O)O)C(=O)NCC(=O)O)[C@@H](C)CC` showed an IC50 in experiment [1] of more than 9610 nM.

For the molecule `CC[C@H](C)[C@H](NC(=O)[C@H](Cc1c[nH]cn1)NC(=O)[C@@H]1CCCN1C(=O)[C@@H](N)CCC(=O)O)C(=O)N[C@@H](CO)C(=O)N[C@@H](Cc1ccc(O)cc1)C(=O)N1CCC[C@H]1C(=O)N1CCC[C@H]1C(=O)N[C@@H](CC(C)C)C(=O)N[C@@H](Cc1c[nH]cn1)C(=O)N[C@@H](CCC(=O)O)C(=O)N[C@@H](CCCNC(=N)N)C(=O)N[C@@H](C)C(=O)N[C@@H](CC(C)C)C(=O)N[C@@H](CCCNC(=N)N)C(=O)O`, in [8] (setting [10]), the DR4w4 binding data is −0.0032. For the same molecule, in experiment [9] (setting [10]), the DR1 binding data was −0.0003.

`CC(C)C[C@H](N)C(=O)NCC(=O)N[C@@H](CCC(=O)O)C(=O)N[C@H](C(=O)N1CCC[C@H]1C(=O)N[C@@H](C)C(=O)N[C@@H](C)C(=O)N[C@@H](CC(=O)O)C(=O)N[C@@H](CO)C(=O)N1CCC[C@H]1C(=O)N[C@@H](CO)C(=O)N1CCC[C@H]1C(=O)N1CCC[C@H]1C(=O)N[C@@H](Cc1c[nH]cn1)C(=O)N[C@@H](CO)C(=O)O)C(C)C`: in experiment [8] (setting [10]), the DR4w4 binding data is on record as −0.0032. In experiment [1], this molecule gave a DR7 binding data of −0.0011. For the same molecule, the DR1 binding data in experiment [9] (setting [10]) was −0.0005.

With `CSCC[C@H](NC(=O)[C@@H](NC(=O)[C@H](CCC(N)=O)NC(=O)[C@H](CC(N)=O)NC(=O)[C@H](CC(=O)O)NC(=O)CNC(=O)[C@H](CC(C)C)NC(=O)[C@H](CC(C)C)NC(=O)CNC(=O)[C@@H](N)CC(=O)O)C(C)C)C(=O)N1CCC[C@H]1C(=O)N[C@@H](CCCCN)C(=O)N[C@H](C(=O)NCC(=O)N[C@@H](CC(C)C)C(=O)O)[C@@H](C)O`, in experiment [8] (setting [10]), the DR4w4 binding data is reported as −0.0032. This molecule showed a DR7 binding data in experiment [1] of −0.0011. Moreover, the DR1 binding data in [9] (setting [10]) was −0.0005.

In experiment [8] (setting [11]), `CC[C@H](C)[C@H](NC(=O)[C@H](CCC(N)=O)NC(=O)[C@H](CC(N)=O)NC(=O)[C@H](CC(=O)O)NC(=O)CNC(=O)[C@H](CC(C)C)NC(=O)[C@H](CC(C)C)NC(=O)CNC(=O)[C@@H](N)CC(=O)O)C(=O)N[C@@H](CCSC)C(=O)N1CCC[C@H]1C(=O)N[C@@H](CCCCN)C(=O)N[C@@H](C)C(=O)NCC(=O)N[C@@H](CC(C)C)C(=O)O` showed a DR4w4 binding data of −0.0032. The DR1 binding data in experiment [9] (setting [11]) is recorded as −0.0003.
